Columns and labels:
APJ receptor = APJ receptor (Homo sapiens (Human), UniProt P35414); settings: Kawamata et al and Hosoya et al; cited from earlier work
[1] = molecular target: human APJ receptor expressed in the CHO cell line (Homo sapiens (Human), UniProt P35414); settings: fixed concentration of pyr apelin-13, different concentrations of AngII, human APJ expressed alone

Sequences of proteins named here, by UniProt entry; tags and fusion partners are left off. A change or cut given only in a name is not applied to a line headed by its entry.
UniProt P35414: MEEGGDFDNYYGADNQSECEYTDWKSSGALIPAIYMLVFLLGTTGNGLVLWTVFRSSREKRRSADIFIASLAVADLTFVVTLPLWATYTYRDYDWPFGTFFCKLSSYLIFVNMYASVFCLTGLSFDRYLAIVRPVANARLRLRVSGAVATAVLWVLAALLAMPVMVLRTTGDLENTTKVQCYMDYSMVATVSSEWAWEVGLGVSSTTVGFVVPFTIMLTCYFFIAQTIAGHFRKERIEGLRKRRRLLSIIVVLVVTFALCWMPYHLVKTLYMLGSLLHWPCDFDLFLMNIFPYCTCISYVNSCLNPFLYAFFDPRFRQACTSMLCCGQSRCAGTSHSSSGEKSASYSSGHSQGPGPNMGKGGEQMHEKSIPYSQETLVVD

Substance	in vitro affinity to the APJ receptor relative to apelin-36 (APJ receptor) [fold]	cooperativity: AngII-induced IP1 accumulation [1]
Apelin-13	~3.5	–
pyroglutamated apelin-13 [pyr apelin-13]	–	no positive cooperativity observed

Source: patent US10150760B2, “Compounds for use in preparing heterocyclic triazole agonists of the APJ receptor” (AMGEN INC., priority 2016, dated 2018)
